We go through 90 compounds from PubChem BioAssay AID540317 (National Center for Advancing Translational Sciences (NCATS), 2011).

Chains of the proteins cited; added tags and fusions are not shown.
UniProt P83916, whole entry: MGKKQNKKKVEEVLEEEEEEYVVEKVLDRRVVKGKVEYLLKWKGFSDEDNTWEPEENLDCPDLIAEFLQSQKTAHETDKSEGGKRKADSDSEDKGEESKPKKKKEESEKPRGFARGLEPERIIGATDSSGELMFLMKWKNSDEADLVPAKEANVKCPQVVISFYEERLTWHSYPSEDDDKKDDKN

This is a selection; strong and weak results do not stand in their true shares. Inconclusive results are not listed. Some salts and complexes are drawn in separate pieces, as the source files them; their charges need not balance. Calls of active or inactive are those of the source. Calls follow the shape of the dose curve; as a rule, active = well fitted inhibition curve with a large enough effect; inconclusive = small, poorly fitted or top-dose-only effect; inactive = no such curve, though single readings can be large or run the other way.

The target in the assay is Chromobox protein homolog 1 (Homo sapiens) (UniProt P83916). Description: HTS for Inhibitors of HP1-beta Chromodomain Interactions with Methylated Histone Tails. Also: nearly all actives have a fitted effect of over 70% in size. Particulars: AlphaScreen HP1-beta / biotin-H3K9me3 peptide binding; at 114 µM (top of the series). (In general: Alpha assays give light when donor and acceptor beads are brought close together.)
`O=C(NCC1(N2CCOCC2)CCCCC1)c1ccccc1`: the activity change, negative = inhibition is inactive: 41.1%.

For the compound `Cc1cc(N(CCCl)CCCl)ccc1C=O`, the activity change, negative = inhibition was inactive: 59.9%. Regarding `CCCN1CCC(Nc2cc(OC)cc(OC)c2)CC1`, the activity change, negative = inhibition was inactive: 10.8%.

As to `c1ccc(CN2CCC(Nc3ccccc3)CC2)cc1`, the activity change, negative = inhibition was inactive: 55.3%. With `CN(C)C1(CNC(=O)c2cccc(C#N)c2)CCCCC1`, the activity change, negative = inhibition is inactive: 19.1%. As for `CCOC(=O)C(CC)C1=NC(C)(C)Cc2ccccc21.O=[N+]([O-])c1cc([N+](=O)[O-])c(O)c([N+](=O)[O-])c1` (stereo not given), the activity change, negative = inhibition was inactive: 29.4%.

For `O=C(NCC1(N2CCOCC2)CCCCC1)c1ccc([N+](=O)[O-])cc1`, the activity change, negative = inhibition is inactive: 1.81%.

As for `CC(C)(C)OC(=O)N1CCC(N(C(=O)c2ccccc2)c2ccc(Cl)cc2)CC1`, the activity change, negative = inhibition is inactive: 29%.

`N#Cc1ccc(C(=O)NCC2(N3CCCCC3)CCCCC2)cc1`: the activity change, negative = inhibition was inactive: 27.3%. On to `O=C(NCC1(N2CCOCC2)CCCCC1)c1ccccc1[N+](=O)[O-]`, for which the activity change, negative = inhibition is inactive: 39.5%. Next, `O=C(O)c1cccc(Nc2c([N+](=O)[O-])cc([N+](=O)[O-])cc2[N+](=O)[O-])c1`: inactive: 46.6%; `O=C(OC1CN2CCC1CC2)C1c2ccccc2C=Cc2ccccc21` (stereo not given): inactive: 27.5%. For the compound `CCc1cc(C(=O)NCC2(N3CCCCC3)CCCCC2)sc1C`, the activity change, negative = inhibition is inactive: 21.8%. Next, `N/C(=N\O)c1c(N)no[n+]1[O-]`: inactive: 22.1%.

On to `CCOC(=O)N1CCC(Nc2ccc(C)cc2)CC1`, for which the activity change, negative = inhibition was inactive: 4.73%. Next, `COc1ccc(C(=O)NCC2(N3CCOCC3)CCCCC2)cc1OC`: inactive: 26.6%; `O=C(NCC1(N2CCOCC2)CCCCC1)c1cc(Br)ccc1Cl`: inactive: 82.9%. Next, `COc1cc(C(=O)NCC2(N3CCOCC3)CCCCC2)cc(OC)c1C`: inactive: 3.16%; `CN1CCC(Nc2ccc(Cl)cc2)CC1`: inactive: 13.7%. As to `CCC(CO)(C(=O)OC1CN2CCC1CC2)c1ccccc1` (stereo not given), the activity change, negative = inhibition is inactive: 17.4%. To `COc1cc(OC)cc(C(=O)NCC2(N3CCOCC3)CCCCC2)c1` belongs inactive: 33.4%; to `COc1cc(C(=O)NCC2(N3CCOCC3)CCCCC2)cc(OC)c1OC`, inactive: 33.8%.

Take `COc1cccc(C(=O)N(c2cc(C)cc(C)c2)C2CCN(C(=O)OC(C)(C)C)CC2)c1`: the activity change, negative = inhibition is inactive: 11.5%. In the case of `CCCOc1ccc(C(=O)NCC2(N(C)C)CCCCC2)cc1`, the activity change, negative = inhibition was inactive: 25.2%.

`O=C(O)C1(Nc2ccccc2)CCN(Cc2ccccc2)CC1`: the activity change, negative = inhibition was inactive: 5.32%. Next, `CC(C)(C)OC(=O)N1CCC(Nc2ccccc2)CC1`: inactive: 18.3%; `CN1CCC(Nc2ccc(F)c(Cl)c2)CC1`: inactive: 15.5%; `CCOc1ncccc1C(=O)NCC1(N2CCOCC2)CCCCC1`: inactive: 21.9%. For `Cn1c(=O)[nH]cc(N(CCCl)CCCl)c1=O`, the activity change, negative = inhibition was inactive: 39.8%. To `CC(C)(C)c1ccc(C(=O)NCC2(N3CCOCC3)CCCCC2)cc1` belongs inactive: 39.4%; to `O=C(NCC1(N2CCCCC2)CCCCC1)c1ccco1`, inactive: 29.8%; to `Cc1ccccc1C(=O)NCC1(N(C)C)CCCCC1`, inactive: 23.1%. Next, `Cc1ccccc1NC1(C#N)CCN(Cc2ccccc2)CC1`: inactive: 34.4%. Next, `Cc1ccc(NC2(C#N)CCN(Cc3ccccc3)CC2)cc1`: inactive: 16.8%; `Fc1ccccc1NC1CCN(Cc2ccccc2)CC1`: inactive: -11.5%.

As for `Cc1ccc(C(=O)NCC2(N3CCCCC3)CCCCC2)o1`, the activity change, negative = inhibition was inactive: 19.9%.

Turning to `COc1cc(OC)cc(C(=O)NCC2(N3CCCCC3)CCCCC2)c1`, the activity change, negative = inhibition was inactive: -10.7%. Turning to `CC(=O)N(c1ccccc1)C1CCNCC1`, the activity change, negative = inhibition was inactive: 15.1%.

`CN(C)C1(CNC(=O)c2ccc(C(C)(C)C)cc2)CCCCC1`: the activity change, negative = inhibition was inactive: 29.6%. Turning to `COc1cc(C(=O)NCC2(N(C)C)CCCCC2)ccc1OC(F)F`, the activity change, negative = inhibition was inactive: 13.4%. Consider `CCOC(=O)N1CCC(Nc2cccc(C)c2)CC1`, for which the activity change, negative = inhibition was inactive: 16.5%. To `COc1ccc(NC2CCN(CCc3ccccc3)CC2)c(OC)c1` belongs inactive: -21.3%; to `CCOC(=O)N1CCC(Nc2ccc(F)cc2)CC1`, inactive: 14.2%; to `O=C(NCC1(N2CCCCC2)CCCCC1)c1ccc(F)cc1`, inactive: 4.99%. To `O=P1(N(CCCl)CCCl)SCCCS1` belongs inactive: -21.2%; to `CCCCOc1ccc(C(=O)NCC2(N3CCOCC3)CCCCC2)cc1`, inactive: 44.1%.

Turning to `COc1ccccc1C(=O)NCC1(N2CCOCC2)CCCCC1`, the activity change, negative = inhibition is inactive: 54.5%.

`CCOc1ccc(C)cc1CN(CCCl)CCCl`: the activity change, negative = inhibition was inactive: 15.8%. To `O=C1CCN(Cc2ccccc2)CC1` belongs inactive: 17.5%; to `O=C(NCC1(N2CCOCC2)CCCCC1)c1ccc(Cl)cc1`, inactive: 33.5%; to `CCOC(=O)N1CCC(Nc2ccc(OC)cc2)CC1`, inactive: -15.1%. Take `COc1ccc(Cl)cc1C(=O)NCC1(N2CCOCC2)CCCCC1`: the activity change, negative = inhibition is inactive: 49.3%.

Take `O=C(OC1CN2CCC1CC2)C1c2ccccc2Oc2ccccc21` (stereo not given): the activity change, negative = inhibition was inactive: 25%.

As to `N#CC1(Nc2ccccc2)CCN(Cc2ccccc2)CC1`, the activity change, negative = inhibition is inactive: 32%. Turning to `O=C(NCC1(N2CCCCC2)CCCCC1)c1ccc(Cl)s1`, the activity change, negative = inhibition is inactive: 25.5%. Take `O=C(NCC1(N2CCOCC2)CCCCC1)c1cc2ccccc2o1`: the activity change, negative = inhibition was inactive: 15.7%. `Cc1cc(C)cc(N(C(=O)c2ccccc2)C2CCN(C(=O)OC(C)(C)C)CC2)c1`: the activity change, negative = inhibition was inactive: 44%. For the compound `O=C(NCC1(N2CCCCC2)CCCCC1)c1ccc(Cl)nc1`, the activity change, negative = inhibition is inactive: 15.4%. To `Cc1cccc(NC2(C#N)CCN(Cc3ccccc3)CC2)c1` belongs inactive: 33.8%; to `CSc1ccccc1C(=O)NCC1(N2CCCCC2)CCCCC1`, inactive: -10.9%. Next, `O=C(NCC1(N2CCCCC2)CCCCC1)c1cccs1`: inactive: 20.4%; `O=C(NCC1(N2CCCCC2)CCCCC1)c1ccc(=O)[nH]c1`: inactive: 29.2%. To `CC(C)(C)OC(=O)N1CCC(N(C(=O)c2ccccc2)c2ccc(F)cc2)CC1` belongs inactive: 33.5%. Turning to `COc1ccc(C(=O)NCC2(N3CCCCC3)CCCCC2)c(OC)c1OC`, the activity change, negative = inhibition is inactive: 39.3%. For `COc1ccc(C(=O)NCC2(N3CCCCC3)CCCCC2)cc1`, the activity change, negative = inhibition was inactive: 11.6%. Take `CCCOc1ccc(C(=O)NCC2(N(C)C)CCCCC2)cc1OC`: the activity change, negative = inhibition was inactive: 14.7%.

`O=C(NCC1(N2CCOCC2)CCCCC1)c1ccccc1Br`: the activity change, negative = inhibition was inactive: 24.2%. To `CCCCOc1ccccc1C(=O)NCC1(N2CCOCC2)CCCCC1` belongs inactive: 46.2%. `COc1ccc2c(c1O)-c1c(O)c(OC)cc3c1[C@H](C2)[N+](C)(C)CC3.O=[N+]([O-])c1cc([N+](=O)[O-])c([O-])c([N+](=O)[O-])c1[O-]`: the activity change, negative = inhibition is inactive: 7.73%.

On to `O=C(NCC1(N2CCCCC2)CCCCC1)c1cncc(Br)c1`, for which the activity change, negative = inhibition is inactive: 2.8%. Turning to `O=C(OC1CN2CCC1CC2)c1ccc([N+](=O)[O-])cc1` (stereo not given), the activity change, negative = inhibition was inactive: 38.4%. As for `O=C(NCC1(N2CCOCC2)CCCCC1)c1cc(F)c(F)cc1Cl`, the activity change, negative = inhibition is inactive: 51.1%. To `COc1cc(OC)c(C(=O)NCC2(N(C)C)CCCCC2)cc1OC` belongs inactive: 6.67%; to `O=[N+]([O-])c1cc([N+](=O)[O-])c(OC2CCCCC2O)c([N+](=O)[O-])c1` (stereo not given), inactive: 46.8%. In the case of `CN(C)c1cccc(C(=O)NCC2(N3CCCCC3)CCCCC2)c1`, the activity change, negative = inhibition was inactive: 10.9%. Next, `COc1ccc(CN(CCCl)CCCl)cc1Cl`: inactive: 47.9%; `CN1CCN(CCOC(=O)C(O)(c2ccccc2)c2ccccc2)CC1`: inactive: 1.54%; `CC(C)c1ccc(C(=O)NCC2(N3CCOCC3)CCCCC2)cc1`: inactive: 8.57%.

As to `COc1ccc(NC2CCN(C(=O)OC(C)(C)C)CC2)cc1`, the activity change, negative = inhibition is inactive: 2.31%. With `COc1cc(C(=O)NCC2(N3CCCCC3)CCCCC2)ccc1OC(F)F`, the activity change, negative = inhibition was inactive: 30.9%.

As to `O=C(NCC1(N2CCOCC2)CCCCC1)c1cc(=O)[nH]c2ccccc12`, the activity change, negative = inhibition is inactive: 18.4%. To `CCCOc1cccc(C(=O)NCC2(N3CCOCC3)CCCCC2)c1` belongs inactive: 55%; to `O=C(NCC1(N2CCCCC2)CCCCC1)c1cccc(C(F)(F)F)c1`, inactive: 9.35%.

As for `O=[N+]([O-])c1cc([N+](=O)[O-])c(NCC2CCS(=O)(=O)C2)c([N+](=O)[O-])c1` (stereo not given), the activity change, negative = inhibition is inactive: 22.1%. Next, `CSc1ccc(C(=O)NCC2(N3CCOCC3)CCCCC2)cc1`: inactive: 9.85%. To `CCOc1ccc(C(=O)NCC2(N3CCOCC3)CCCCC2)cc1` belongs inactive: 29.4%. Turning to `O=C(NCC1(N2CCCCC2)CCCCC1)c1cccc([N+](=O)[O-])c1`, the activity change, negative = inhibition was inactive: 17.5%. As to `N#CC1(Nc2ccccc2)CCN(CCc2ccccc2)CC1`, the activity change, negative = inhibition was inactive: 44.4%. To `CCN1CCC(Nc2ccc(Cl)cc2)CC1` belongs inactive: -4.98%; to `O=C(NCC1(N2CCCCC2)CCCCC1)c1ccc(OC(F)F)cc1`, inactive: -3.33%.
